Earlier results in patent US20110301209A1, “METHODS AND COMPOSITIONS FOR THE TREATMENT OF CANCER, TUMORS, AND TUMOR-RELATED DISORDERS” (TRAGARA PHARMACEUTICALS, INC., priority 2007, published 2011).

Test system: SKBR3 cells engineered to overexpress IGF-1R
Settings: SKBR3 cells overexpressing IGF-1R; cited from earlier work

trastuzumab: an antibody directed against ErbB2
Response (proliferation): no response
